Columns and labels:
Test in all cases: Prophylactic effect on ischemic breakdown of cytoskeletal proteins, 5-minute brain ischemia-reperfusion model
Format in all cases: in vivo, gerbil
[1] = system: clathrin; design: key to Effect on decrease in Clathrin: +: Statistically significant; -: Not effective
Description: (§1) A gerbil was immobilized in supine position and median section was performed in the cervical region under local anesthesia. Then, the bilateral common carotid arteries were stripped off carefully not to injure the vagus and sympathetic nerves running in parallel, . Then, each common carotid artery was obstructed with a small clip and after an interval of 5, 10 or 15 minutes, the clips were removed. The animal was decapitated immediately, 4 days or 1 week after the removal of the clips, and the brain was isolated. Untreated animals served as controls and animals undergoing sham operation (involving the stripping procedure only) were also investigated. The isolated brain was sectioned under ice-cooling into the frontal cortex (upper 2/3, approximately corresponding to the 1st to the 5th layer, ∼80 mg), striatum (∼20 mg) and hippocampus (∼50 mg) and each portion was homogenized in 4 times volume of (v/w) of 0.01 M phosphate buffer (pH 7.2). Each homogenate was centrifuged at 100,000 G for 30 minutes to obtain a supernatant. Equal parts of these supernatants were subjected to SDS-polyacrylamide gel (5%) electrophoresis and the proteins, namely MAP-2 (MW: 250-260K) calspectin (MW: 230-240K) and clathrin (MW: 180K), were quantified by measuring the absorbances at 560 nm with a densitometer (CS-930, Shimazu), and the proportion of each protein to the total water-soluble protein (exactly, the integral sum of the absorbance areas) was calculated. In addition, the relative percentage to the value of the untreated control group was also calculated.
(§2) Two series of experiments were carried out. […] One hour after the reperfusion, the animal was killed by decapitation and the brain was removed. […] One hour after the final administration (day 5), the animal was decapitated and the brain was isolated. The isolated brain was subjected to fractionation and electrophoresis as described above.

[2] = system: MAP-2; design: key to Effect on decrease in MAP-2: +: Statistically significant; -: Not effective
Description: as §1, §2

[3] = system: calspectin; design: key to Effect on decrease in Calspectin: +: Statistically significant; -: Not effective
Description: as §1, §2

[4] = Cortex, 0.01 mg/kg s.c. 1 hour before ischemia, 1 hour after ischemia
[5] = Cortex, 0.1 mg/kg s.c. 1 hour before ischemia and once a day for 4 days, 4 days after ischemia
[6] = Cortex, 0.1 mg/kg s.c. 1 hour before ischemia, 1 hour after ischemia
[7] = Cortex, 1 mg/kg s.c. 1 hour before ischemia and once a day for 4 days, 4 days after ischemia
[8] = Cortex, 1 mg/kg s.c. 1 hour before ischemia, 1 hour after ischemia
[9] = Cortex, 10 mg/kg s.c. 1 hour before ischemia and once a day for 4 days, 4 days after ischemia
[10] = Frontal cortex, Left: dosed 1 hour before ischemia, killed 1 hour after ischemia
[11] = Frontal cortex, Right: dosed 1 hour before ischemia and for 4 subsequent days, killed 1 hour after the last dosing
[12] = Hippocampus, 0.01 mg/kg s.c. 1 hour before ischemia, 1 hour after ischemia
[13] = Hippocampus, 0.1 mg/kg s.c. 1 hour before ischemia and once a day for 4 days, 4 days after ischemia
[14] = Hippocampus, 0.1 mg/kg s.c. 1 hour before ischemia, 1 hour after ischemia
[15] = Hippocampus, 1 mg/kg s.c. 1 hour before ischemia and once a day for 4 days, 4 days after ischemia
[16] = Hippocampus, 1 mg/kg s.c. 1 hour before ischemia, 1 hour after ischemia
[17] = Hippocampus, 10 mg/kg s.c. 1 hour before ischemia and once a day for 4 days, 4 days after ischemia
[18] = Hippocampus, Left: dosed 1 hour before ischemia, killed 1 hour after ischemia
[19] = Hippocampus, Right: dosed 1 hour before ischemia and for 4 subsequent days, killed 1 hour after the last dosing
[20] = Striatum, 0.01 mg/kg s.c. 1 hour before ischemia, 1 hour after ischemia
[21] = Striatum, 0.1 mg/kg s.c. 1 hour before ischemia and once a day for 4 days, 4 days after ischemia
[22] = Striatum, 0.1 mg/kg s.c. 1 hour before ischemia, 1 hour after ischemia
[23] = Striatum, 1 mg/kg s.c. 1 hour before ischemia and once a day for 4 days, 4 days after ischemia
[24] = Striatum, 1 mg/kg s.c. 1 hour before ischemia, 1 hour after ischemia
[25] = Striatum, 10 mg/kg s.c. 1 hour before ischemia and once a day for 4 days, 4 days after ischemia
[26] = Striatum, Left: dosed 1 hour before ischemia, killed 1 hour after ischemia
[27] = Striatum, Right: dosed 1 hour before ischemia and for 4 subsequent days, killed 1 hour after the last dosing
[28] = sum of left and right (in brackets)

**Q.** With COC(=O)C1=C(C)NC(C)=C(C(=O)OCCN(C)Cc2ccccc2)C1c1cccc([N+](=O)[O-])c1 (centres unmarked) [Nicardipine, nicardipine] as the compound, how does the Clathrin protein concentration [1, 4] read?
**A.** 69.7± 5.8 % of normal value

**Q.** What about the Clathrin protein concentration [1, 5] of the same compound?
**A.** 65.0± 6.6 % of normal value

**Q.** And the Clathrin protein concentration [1, 6]?
**A.** 66.4± 5.0 % of normal value

**Q.** What about the Clathrin protein concentration [1, 7] of the same compound?
**A.** 55.3± 2.6 % of normal value

**Q.** What about the Clathrin protein concentration [1, 8] of the same compound?
**A.** 67.2± 3.7 % of normal value

**Q.** What about the Clathrin protein concentration [1, 9] of the same compound?
**A.** 54.8± 2.0 % of normal value

**Q.** And the “Effect on decrease in Clathrin” value [1, 10]?
**A.** -/-

**Q.** What about the “Effect on decrease in Clathrin” value [1, 11] of the same compound?
**A.** -/-

**Q.** And the Clathrin protein concentration [1, 12]?
**A.** 53.0± 6.1 % of normal value

**Q.** What about the Clathrin protein concentration [1, 13] of the same compound?
**A.** 48.6± 8.9 % of normal value

**Q.** What about the Clathrin protein concentration [1, 14] of the same compound?
**A.** 49.0± 3.3 % of normal value

**Q.** What about the Clathrin protein concentration [1, 15] of the same compound?
**A.** 50.3± 5.2 % of normal value

**Q.** What about the Clathrin protein concentration [1, 16] of the same compound?
**A.** 56.9± 7.6 % of normal value

**Q.** And the Clathrin protein concentration [1, 17]?
**A.** 50.4± 4.9 % of normal value

**Q.** And the “Effect on decrease in Clathrin” value [1, 18]?
**A.** -/-

**Q.** And the “Effect on decrease in Clathrin” value [1, 19]?
**A.** -/-

**Q.** And the Clathrin protein concentration [1, 20]?
**A.** 53.1± 9.2 % of normal value

**Q.** And the Clathrin protein concentration [1, 21]?
**A.** 51.7± 7.4 % of normal value

**Q.** And the Clathrin protein concentration [1, 22]?
**A.** 48.3± 3.9 % of normal value

**Q.** What about the Clathrin protein concentration [1, 23] of the same compound?
**A.** 59.9± 7.3 % of normal value

**Q.** And the Clathrin protein concentration [1, 24]?
**A.** 64.5± 6.5 % of normal value

**Q.** And the Clathrin protein concentration [1, 25]?
**A.** 55.4± 7.3 % of normal value

**Q.** And the “Effect on decrease in Clathrin” value [1, 26]?
**A.** -/-

**Q.** What about the “Effect on decrease in Clathrin” value [1, 27] of the same compound?
**A.** -/-

**Q.** What about the “Total score, Clathrin” value [1, 28] of the same compound?
**A.** 0/0 (0)

**Q.** And the MAP-2 protein concentration [2, 4]?
**A.** 67.8± 7.7 % of normal value

**Q.** What about the MAP-2 protein concentration [2, 5] of the same compound?
**A.** 41.6± 5.6 % of normal value

**Q.** What about the MAP-2 protein concentration [2, 6] of the same compound?
**A.** 78.1± 7.0 % of normal value

**Q.** What about the MAP-2 protein concentration [2, 7] of the same compound?
**A.** 50.9± 6.3 % of normal value

**Q.** And the MAP-2 protein concentration [2, 8]?
**A.** 85.6± 9.7 % of normal value

**Q.** And the MAP-2 protein concentration [2, 9]?
**A.** 55.6± 6.1 % of normal value

**Q.** What about the “Effect on decrease in MAP-2” value [2, 10] of the same compound?
**A.** +/+

**Q.** What about the “Effect on decrease in MAP-2” value [2, 11] of the same compound?
**A.** +/+

**Q.** What about the MAP-2 protein concentration [2, 12] of the same compound?
**A.** 45.2± 6.2 % of normal value

**Q.** What about the MAP-2 protein concentration [2, 13] of the same compound?
**A.** 44.8± 4.5 % of normal value

**Q.** What about the MAP-2 protein concentration [2, 14] of the same compound?
**A.** 46.7± 2.6 % of normal value

**Q.** And the MAP-2 protein concentration [2, 15]?
**A.** 38.9± 6.4 % of normal value

**Q.** And the MAP-2 protein concentration [2, 16]?
**A.** 50.5± 4.4 % of normal value

**Q.** And the MAP-2 protein concentration [2, 17]?
**A.** 49.8± 4.3 % of normal value

**Q.** And the “Effect on decrease in MAP-2” value [2, 18]?
**A.** -/-

**Q.** And the “Effect on decrease in MAP-2” value [2, 19]?
**A.** -/-

**Q.** What about the MAP-2 protein concentration [2, 20] of the same compound?
**A.** 53.5± 5.4 % of normal value

**Q.** And the MAP-2 protein concentration [2, 21]?
**A.** 44.8± 2.9 % of normal value

**Q.** And the MAP-2 protein concentration [2, 22]?
**A.** 56.7± 9.4 % of normal value

**Q.** And the MAP-2 protein concentration [2, 23]?
**A.** 51.0± 6.8 % of normal value

**Q.** And the MAP-2 protein concentration [2, 24]?
**A.** 55.0± 4.3 % of normal value

**Q.** What about the MAP-2 protein concentration [2, 25] of the same compound?
**A.** 57.0± 2.2 % of normal value

**Q.** And the “Effect on decrease in MAP-2” value [2, 26]?
**A.** +/+

**Q.** And the “Effect on decrease in MAP-2” value [2, 27]?
**A.** +/+

**Q.** What about the Calspectin protein concentration [3, 4] of the same compound?
**A.** 80.5± 5.1 % of normal value

**Q.** What about the Calspectin protein concentration [3, 5] of the same compound?
**A.** 54.7± 8.3 % of normal value

**Q.** What about the Calspectin protein concentration [3, 6] of the same compound?
**A.** 88.2± 4.5 % of normal value

**Q.** And the Calspectin protein concentration [3, 7]?
**A.** 51.9±10.5 % of normal value

**Q.** What about the Calspectin protein concentration [3, 8] of the same compound?
**A.** 88.8± 5.3 % of normal value

**Q.** And the Calspectin protein concentration [3, 9]?
**A.** 64.6± 8.4 % of normal value

**Q.** What about the “Effect on decrease in Calspectin” value [3, 10] of the same compound?
**A.** -/-

**Q.** What about the “Effect on decrease in Calspectin” value [3, 11] of the same compound?
**A.** -/-

**Q.** What about the Calspectin protein concentration [3, 12] of the same compound?
**A.** 78.5±11.8 % of normal value

**Q.** What about the Calspectin protein concentration [3, 13] of the same compound?
**A.** 57.6± 4.8 % of normal value

**Q.** What about the Calspectin protein concentration [3, 14] of the same compound?
**A.** 70.4± 5.3 % of normal value

**Q.** And the Calspectin protein concentration [3, 15]?
**A.** 59.5± 6.7 % of normal value

**Q.** What about the Calspectin protein concentration [3, 16] of the same compound?
**A.** 65.4± 9.2 % of normal value

**Q.** And the Calspectin protein concentration [3, 17]?
**A.** 61.2± 9.1 % of normal value

**Q.** What about the “Effect on decrease in Calspectin” value [3, 18] of the same compound?
**A.** -/-

**Q.** What about the “Effect on decrease in Calspectin” value [3, 19] of the same compound?
**A.** -/-

**Q.** And the Calspectin protein concentration [3, 20]?
**A.** 56.6± 4.4 % of normal value

**Q.** What about the Calspectin protein concentration [3, 21] of the same compound?
**A.** 55.6± 7.3 % of normal value

**Q.** And the Calspectin protein concentration [3, 22]?
**A.** 63.7± 5.8 % of normal value

**Q.** What about the Calspectin protein concentration [3, 23] of the same compound?
**A.** 59.6± 4.6 % of normal value

**Q.** And the Calspectin protein concentration [3, 24]?
**A.** 54.7± 6.0 % of normal value

**Q.** What about the Calspectin protein concentration [3, 25] of the same compound?
**A.** 56.8± 6.4 % of normal value

**Q.** And the “Effect on decrease in Calspectin” value [3, 26]?
**A.** -/-

**Q.** And the “Effect on decrease in Calspectin” value [3, 27]?
**A.** -/-

**Q.** And the “Total score, Calspectin” value [3, 28]?
**A.** 0/0 (0)

From patent EP0322747B1, “A brain neuron protecting agent containing a dihydropyridine compound” (priority 1987, dated 1989)
